Hits are enriched below; roughly 0.46% of the tested compounds scored in any of these assays.
HCMV NEC inh – cytomegalovirus nuclear egress complex inhibition | HTRF UL50-UL53 interaction, normalized percent inhibition | inhibition, % (no concentration beside the values) | 190,000 tested, 0.15% active; in the data active = inhibition above about 27%, passing the limit was not always enough
GIV Gai3 FP – blocks GIV peptide binding to rat Galpha-i3. P08753. Galpha-i3/FITC-GIV peptide fluorescence polarization, 90 min; stronger effect = lower value; scaled: aluminum fluoride 0%, vehicle 100%. percent of control (FP), % (test concentration not listed). 0.42% of 210,000 active. AID 1224905;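 active = replicate mean at 85% of control or lower, very high polarization wells dropped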;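 also: wells of about 15 µL received 100 nL stock; the first replicate is given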
An asterisk follows results filed as active; . = not tested or not shown.

SMILES	HCMV NEC inh	GIV Gai3 FP
COc1ccccc1N=Cc1sc2ccccc2c1O	-33	-53*
Cc1cc(C)n(CC(=O)N/N=C/c2ccccc2)n1	-26	100
COc1cc(OC)cc(C(=O)N2CCN(C(=O)c3cc4ccccc4[nH]3)CC2)c1	.	110
O=c1[nH]nc(SCc2cccc3ccccc23)c(=O)[nH]1	-1	85*
O=c1[nH]nc(SCc2ccccc2)c(=O)[nH]1	-21	99
COC(=O)/C=C/c1ccc2c(c1)OCO2	-17	.
CN(C)c1ccc(/C=C/C(=O)/C=C/c2ccco2)cc1	13	6.8*
O=C(O)/C=C/c1ccco1	-1	101
CN(C)c1ccc(/C=C/C(=O)/C=C/c2ccc3c(c2)OCO3)cc1	.	-64*
N#CC(C#N)=Cc1ccc(-c2ccc(SC(F)F)cc2)o1	3	.
CC(C)Oc1ccc(C(=O)Nc2sccc2C#N)cc1	-6	.
O=C(NC1CCCC1)C1CCN(c2ccc(-c3ccccc3)nn2)CC1	-25	105
O=C(NC1CCN(Cc2ccccc2)CC1)C1CCN(c2ccc(-c3ccccc3)nn2)CC1	29*	106
CCOC(=O)CNC(=O)CSc1nnc(NC(=O)Nc2ccc(F)cc2)s1	.	104
Cc1c(/C=C2\SC(c3ccccc3)=NC2=O)c(=O)n(-c2ccccc2)n1C	.	-4.0*
O=C1N=C(c2ccccc2)S/C1=C\c1cccs1	.	113
CCCNC(=O)NNc1cccc(C)c1	-18	.
O=C1/C(=C/C2=Cc3ccccc3OC2)SC(=S)N1C1CCS(=O)(=O)C1 (stereo unspecified)	-48	-35*
O=C1/C(=C/c2cn(-c3ccccc3)nc2-c2ccc(Cl)cc2)SC(=S)N1C1CCS(=O)(=O)C1 (stereo unspecified)	-7	105
O=C(O)CCC(=O)Nc1nc2n(n1)C(c1ccccc1)C=C(c1ccccc1)N2 (stereo unspecified)	-26	83*
O=C(Nc1nc2n(n1)C(c1ccccc1)C=C(c1ccccc1)N2)c1ccco1 (stereo unspecified)	-33	130
O[N+]1=CC=CCC1=S.On1ccccc1=S.[Zn]	93*	.
CN(C)c1cccc(C(=O)NCc2ccc3c(c2)N(C(=O)c2ccccc2)CC3)c1	8	97
CC(C)(C)NC(=O)Nc1nnc(SCC(=O)NC2CCCC2)s1	.	100
Cc1cccc(NC2=NCC(=O)N2Cc2ccccc2)c1	59*	102
O=C1CN=C(Nc2ccccc2Cl)N1Cc1ccccc1	15	102
O=C(c1cc2c(s1)-c1ccccc1S(=O)(=O)C2)N1CCN(c2ccccn2)CC1	-120	108
COc1ccc(/C=c2/sc3nc(=O)cnn3c2=O)cc1	.	110
Cc1ccc(/C=c2/sc3nc(=O)cnn3c2=O)cc1	72*	92
O=C(c1ccccc1)N1CCN(C(=O)c2cc3cc(Br)ccc3[nH]2)CC1	.	104
Cc1ccc(-c2csc(CS(=O)(=O)C(C)(C)C)n2)cc1	-21	105
O=C(C1=C(O)C(=O)N(c2ccccn2)C1c1ccccc1)c1cccs1 (stereo unspecified)	-34	.
Cc1nnc(N2C(=O)C(O)=C(C(=O)c3cccs3)C2c2ccccc2F)s1 (stereo unspecified)	-61	-9.4*
COc1cccc(C(=O)NCCc2csc3nc(-c4ccccc4C)nn23)c1OC	-20	98
N#Cc1cc2ccc(O)cc2oc1=N	-28	-3.8*
O=c1oc2cc(O)ccc2cc1-c1cc(F)cc(F)c1	-36	115
O=C(O)CCC1(CCC(=O)O)C(=O)c2cccc3cccc1c23	-21	102
COc1ccc(Cl)cc1NC(=O)Cn1ncc2ccccc21	1	102
CCCCN1/C(=C/C=C/c2n(CCCC)c3cc(Cl)c(Cl)cc3[n+]2C)N(C)c2cc(Cl)c(Cl)cc21	.	37*
CC(=O)OCCN1C(=C/C=C/c2n(CCOC(C)=O)c3cc(Cl)c(Cl)cc3[n+]2CCOC(C)=O)N(CCOC(C)=O)c2cc(Cl)c(Cl)cc21	.	282
CCCCCN1/C(=C\C=C\c2n(CC)c3cc(Cl)c(Cl)cc3[n+]2CCCCC)N(CC)c2cc(Cl)c(Cl)cc21	.	-62*
C=CCn1c(/C=C/C=C2N(CC)c3cc(Cl)c(Cl)cc3N2CC)[n+](CCCS(=O)(=O)[O-])c2cc(Cl)c(Cl)cc21	.	169
O=C(c1cn2c(n1)CCCC2)N1CCC(N2CCCCC2)CC1	.	99
CCC1CCCCN1Cc1c(O)ccc2cc(-c3nc(C)cs3)c(=O)oc12 (stereo unspecified)	-56	.
CC1CCCCN1Cc1c(O)ccc2cc(-c3nc4ccccc4s3)c(=O)oc12 (stereo unspecified)	-61	-32*
Nc1nc(CCl)nc(N2CCCCC2)n1	-3	99
CCCOc1cccc2c1CCN(CC)C2=O	-18	.
CCn1c(/C=C/C=C2\N(C)c3ccccc3C2(C)C)[n+](Cc2ccccc2)c2ccccc21	.	-32*
CCn1c(C)[n+](CC)c2ccc(Cl)cc21	7	.
CC[n+]1c(/C=C/C=C2\N(C)c3ccccc3C2(C)C)n(-c2ccccc2)c2ccc(C)cc21	.	-32*
CN1/C(=C\C(=O)c2ccccc2)C(C)(C)c2ccccc21	23	.
CN1/C(=C/C=C/C=C/C=[N+](C)c2ccccc2)C(C)(C)c2ccccc21	.	258
CC[n+]1c(/C=C/C=C2\N(C)c3ccccc3C2(C)C)n(-c2ccccc2)c2cc(Cl)ccc21	.	-32*
COCCCNC(=O)c1c(NC(=O)c2csnn2)sc2c1CCCC2	-19	98
O=C1CCCN1CC(O)CN1CCN(c2nc3ccc(Cl)cc3s2)CC1 (stereo unspecified)	.	105
CCCCNC(=O)CCc1nnc2c(N3CCCCC3)nc3ccccc3n12	.	107
CCOC(=O)C1CCCN(C(=O)Cn2c(=O)c3ccccc3n3c(=S)sc(-c4ccc(Cl)cc4)c23)C1 (stereo unspecified)	12	135
CCOC(=O)C1CCCN(C(=O)Cn2c(=O)c3ccccc3n3c(=S)sc(-c4cccc(F)c4)c23)C1 (stereo unspecified)	-36	77*
CCOc1ccc(NC(=O)Nc2cccc(OCc3cc(=O)n4cc(Cl)ccc4n3)c2)cc1	.	107
Cc1ccc2nc(COc3ccc(NC(=O)Nc4ccc(Cl)cc4)cc3)cc(=O)n2c1	.	85*

6 of these compounds, set out differently.
| SMILES | HCMV NEC inh | GIV Gai3 FP |
| --- | --- | --- |
| CCOC(=O)C1CCCN(C(=O)Cn2c(=O)c3ccccc3n3c(=S)sc(-c4cccc(F)c4)c23)C1 (stereo unspecified) | -36 | 77* |
| Nc1nc(CCl)nc(N2CCCCC2)n1 | -3 | 99 |
| CCn1c(/C=C/C=C2\N(C)c3ccccc3C2(C)C)[n+](Cc2ccccc2)c2ccccc21 | . | -32* |
| CCCOc1cccc2c1CCN(CC)C2=O | -18 | . |
| CN1/C(=C\C(=O)c2ccccc2)C(C)(C)c2ccccc21 | 23 | . |
| CCOC(=O)C1CCCN(C(=O)Cn2c(=O)c3ccccc3n3c(=S)sc(-c4ccc(Cl)cc4)c23)C1 (stereo unspecified) | 12 | 135 |

Later entries.
SMILES	HCMV NEC inh	GIV Gai3 FP
O=C(CSc1nnc2c(Cl)cc(C(F)(F)F)cn12)NCC(F)(F)F	-36	.
O=C(CCn1c(N2CCCC2)nc2ccsc2c1=O)NCc1ccc2c(c1)OCO2	.	99
O=C1S/C(=C\c2ccc(N3CCOCC3)o2)C(=O)N1Cc1ccc(F)cc1	-32	258
O=C(CN1C(=O)S/C(=C\c2ccc(N3CCOCC3)o2)C1=O)Nc1ccccc1F	-26	-19*
O=C(CSc1nc2scc(-c3ccco3)c2c(=O)n1-c1ccccc1)Nc1ccccc1	-18	.
O=C(O)c1cccc(-c2ccc(/C=C3\Sc4ccccc4C3=O)o2)c1	-86	-73*
O=C(O)c1ccc(-c2ccc(/C=C3\Sc4ccccc4C3=O)o2)cc1	.	-10*
CCOC(=O)c1ccc(-c2ccc(/C=C3\Sc4ccccc4C3=O)o2)cc1	-18	116
COC(=O)c1cccc(-c2ccc(/C=C3\Sc4ccccc4C3=O)o2)c1	5	163
N/C(Cc1nc2ccccc2s1)=N\O	52*	127
c1ccc2sc(CCc3nc4ccccc4s3)nc2c1	-9	.
Cc1ccc(Cl)cc1NC(=O)N(C)CCc1noc(C(=O)NCc2ccc(Cl)cc2)n1	.	105
Oc1ccc(C=Nc2cccnc2)cc1	5	99

Rewritten as labelled records: part of the list above
molecule: O=C(CSc1nc2scc(-c3ccco3)c2c(=O)n1-c1ccccc1)Nc1ccccc1
  HCMV NEC inh: -18	GIV Gai3 FP: .

molecule: O=C(O)c1cccc(-c2ccc(/C=C3\Sc4ccccc4C3=O)o2)c1
  HCMV NEC inh: -86	GIV Gai3 FP: -73*
